# Experimental data published in PubChem BioAssay AID1259373 (The Scripps Research Institute Molecular Screening Center, 2018).
# The entries are a selection whose mix differs from that of the whole data set. The source made the active and inactive calls. No rule for the calls is given here.
# Experiment: signal-interfering artefacts in bead proximity readout – biochemical, AlphaScreen, HTS, counter-screen, dose response (AID 1259373)
# Conditions: AlphaScreen optical interference counterscreen, cell-free
structure (smiles),measurement,value
O=[N+]([O-])c1cc2[nH]c3cc([N+](=O)[O-])c([N+](=O)[O-])cc3c2cc1[N+](=O)[O-],IC50,inactive: > 6.48 µM
